# Measured affinities in a library of Ab-14 heavy chain variants

Data: MIT Lincoln Laboratory AlphaSeq set, Engelhart et al. 2022, doi:10.1038/s41597-022-01779-4, as distributed in FLAb.

Target: peptide PDVDLGDISGINAS, taken from heptad repeat 2 (HR2) of SARS-CoV-2 spike.

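Phage display of a naive human antibody library on the peptide gave the parent. The library (AAYL49) carries one to three amino acid substitutions per variant, with no insertions or deletions. In AlphaSeq, yeast of one mating type display the scFv and yeast of the other type display the target. The frequency of each diploid, read from paired DNA barcodes, reflects how well the two displayed proteins bind. Scores were corrected for input abundance and mapped to Kd with protein pairs of known affinity run in the same pool. There are three technical replicates.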

Parent: Ab-14, a human scFv built as VH, a (GGGGS)3 linker, VL. Only the CDRs of the heavy chain vary.
VH: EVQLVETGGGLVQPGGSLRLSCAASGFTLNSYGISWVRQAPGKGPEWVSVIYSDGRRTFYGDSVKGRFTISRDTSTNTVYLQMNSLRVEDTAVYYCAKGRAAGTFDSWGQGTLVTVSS
VL: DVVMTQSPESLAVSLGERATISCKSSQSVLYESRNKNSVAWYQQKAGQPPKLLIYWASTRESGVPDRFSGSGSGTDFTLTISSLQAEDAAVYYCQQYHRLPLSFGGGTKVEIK

The parent's heavy chain CDRs are GFTLNSYGIS, VIYSDGRRTFYGDSVK, GRAAGTFDS; each variant's own CDRs replace them letter for letter. Values are log10 of the apparent Kd in nM; lower means stronger binding. A mean of the replicates is given; it leaves out those without a signal. A pair that was not seen in that replicate is written "nd"; this usually means weak binding, but a binder can also be missed. Three control strains display no target. For library AAYL49, 15% of the pairings with them gave a signal, with a median of 4.06 and one signal in twenty below 2.83, so weak values seen in few replicates may be background. For each scFv, signals with the empty controls are counted beside the result, with their mean in brackets.

CDR-H1,CDR-H2,CDR-H3,log10 Kd (nM) by replicate,"mean, log10 nM",signal with controls
GFTDNSYGAS,VIYSDGRRTFYWDSVK,GRAAGTFDS,nd nd 3.29,3.29,1 of 9 (4.81)
GIWLNSYGIS,VIYSDGRRMFYGDSVK,GRAAGTFDS,nd nd 3.21,3.21,0 of 9
GFTLNSYGIS,VICSDGRRTFYGDSVK,GRACGTFDS,5.70 nd nd,5.70,1 of 9 (4.03)
GFTLNSYGHS,VIYSDGRGTFYGDMVK,GRAAGTFDS,nd nd 4.97,4.97,4 of 9 (4.10)
GFTLNSYGIS,VIYSETRRTFYGDSGK,GRAAGTFDS,nd nd nd,nd,0 of 9
GFTLNNYGES,VIYSDGRRTFYGDSVK,GRAAGTFDS,nd 5.00 nd,5.00,1 of 9 (2.99)
GFTLNSFGIS,VIYSAGRRTFYGDSVK,GRAAGTFDT,5.16 nd nd,5.16,3 of 9 (4.14)
AFTANSYGIS,VIYNDGRRTFYGDSVK,GRAAGTFDS,nd nd nd,nd,0 of 9
GFQLNSYGIS,VIYSDGRRTFFEDSVK,GRAAGTFDS,2.45 1.83 1.90,2.06,4 of 9 (3.86)
GATLNSYGIT,VIYSDGRRTFYGDSVK,GRAAGTFIS,nd nd nd,nd,1 of 9 (4.13)
GFTLNLYGIS,VIYSDGFRTFGGDSVK,GRAAGTFDS,3.00 nd nd,3.00,2 of 9 (4.55)
GFTLNSYGIS,VIYSDGRRTFYVDSCK,GRAAGTFDD,nd nd nd,nd,2 of 9 (3.30)
GFTLNSYGAS,VIYSDGRRTFYGDSVK,GRAAGTTDS,nd nd nd,nd,0 of 9
GNTLNSYGIS,VIYSDGRRTFYGDSVK,GVAAGTFDS,2.10 2.16 1.84,2.03,3 of 9 (3.92)
GFTLNSKGIS,VQYSDGRRTFYGDSVK,GRAAGTFDS,4.19 4.27 nd,4.23,2 of 9 (3.79)
CFTLNSYGIS,VIYSDGRRTFYGPSVK,GRAMGTFDS,5.75 5.00 nd,5.37,3 of 9 (4.50)
GFTLNSYGIS,VIYSDGRRTFSGDSVK,GRAAGTFDH,nd nd nd,nd,0 of 9
GFTLNSDGIS,VIYSDGRNTFYGDSVQ,GRAAGTFDS,4.29 2.38 nd,3.33,2 of 9 (3.97)
GFTLNSYGIS,VIYSDGRRTFYGDHVK,WRAAGTADS,nd nd nd,nd,1 of 9 (3.64)
GFTLNSYGIS,VIYSDGTRTFYGDWVK,GRAAGTFDS,2.40 2.42 1.92,2.24,1 of 9 (3.67)
GFHLASYGIS,VIYSMGRRTFYGDSVK,GRAAGTFDS,4.91 nd 4.50,4.70,5 of 9 (4.08)
GFTLNSYGIG,VIYSDGRRTFYGDSVK,GRADGMFDS,nd nd nd,nd,2 of 9 (5.06)
GFTLNSYGIS,VIYSDGFRTFMGDSVK,GLAAGTFDS,4.42 nd nd,4.42,3 of 9 (4.47)
GFTLNSYMIS,VIYSDGRRTFYGDSRK,GRAKGTFDS,nd nd 3.79,3.79,1 of 9 (5.49)
GFTLNSYGIS,VIYSDGRSTDYGDSVK,GRAAGTFIS,nd 3.45 nd,3.45,1 of 9 (4.66)
GFTLASYGFS,VIYSDGRFTFYGDSVK,GRAAGTFDS,nd nd nd,nd,1 of 9 (3.77)
GFTLNSHWIS,VIYSDGRRTPYGDSVK,GRAAGTFDS,nd nd 5.15,5.15,2 of 9 (3.14)
GFTLNSYGIS,VYNSDGRRTFGGDSVK,GRAAGTFDS,nd nd nd,nd,1 of 9 (4.73)
GFTLNSYGIS,VIYSDGRRTFYHDMVK,GRFAGTFDS,2.95 3.34 2.71,3.00,1 of 9 (4.75)
GFTLNSYGIS,VIYSDGRRTFYGQSVK,GRAWGTIDS,1.30 1.39 1.33,1.34,1 of 9 (3.95)
GFTLNSYGIS,VIQSDGRPTFYGMSVK,GRAAGTFDS,nd nd nd,nd,0 of 9
GFTLNSSGIS,VIYSDGRRTFYGDSVK,GCAAGTFDS,6.13 4.23 3.91,4.76,4 of 9 (4.17)
GFTANSYGIS,VIWSDGRRTFYGDWVK,GRAAGTFDS,nd 4.11 6.29,5.20,2 of 9 (5.08)
GFTLNSYGYS,VIYSDGRRTFHGDSVK,GRAALTFDS,nd 3.73 nd,3.73,2 of 9 (3.65)
GFTLNSYGRS,VIYSDGRRTFYGDSGK,GRAAGTFDS,5.29 3.40 4.44,4.38,6 of 9 (4.06)
GFTLNSYGIS,VIYSDGPRTFYGASVK,PRAAGTFDS,4.07 nd nd,4.07,1 of 9 (4.62)
GFTLNSYGIS,HIYSDGRRTFYGDSIK,GRAAVTFDS,nd nd 4.65,4.65,0 of 9

Picked from the list: the 3 lowest averages where every replicate gave a value.

CDR-H1,CDR-H2,CDR-H3,log10 Kd (nM) by replicate,"mean, log10 nM",signal with controls
GFTLNSYGIS,VIYSDGRRTFYGQSVK,GRAWGTIDS,1.30 1.39 1.33,1.34,1 of 9 (3.95)
GNTLNSYGIS,VIYSDGRRTFYGDSVK,GVAAGTFDS,2.10 2.16 1.84,2.03,3 of 9 (3.92)
GFQLNSYGIS,VIYSDGRRTFFEDSVK,GRAAGTFDS,2.45 1.83 1.90,2.06,4 of 9 (3.86)